This passage reports IC50 results from patent US20260158031A1, “AROMATIC HETEROCYCLIC COMPOUND, PHARMACEUTICAL COMPOSITION CONTAINING THE SAME, AND USE THEREOF” (HANG ZHOU YUHONG PHARMATECH CO., LTD., priority 2021, published 2026).

The chains behind the UniProt entries cited, without tags or fusion partners.
UniProt P52333, whole entry: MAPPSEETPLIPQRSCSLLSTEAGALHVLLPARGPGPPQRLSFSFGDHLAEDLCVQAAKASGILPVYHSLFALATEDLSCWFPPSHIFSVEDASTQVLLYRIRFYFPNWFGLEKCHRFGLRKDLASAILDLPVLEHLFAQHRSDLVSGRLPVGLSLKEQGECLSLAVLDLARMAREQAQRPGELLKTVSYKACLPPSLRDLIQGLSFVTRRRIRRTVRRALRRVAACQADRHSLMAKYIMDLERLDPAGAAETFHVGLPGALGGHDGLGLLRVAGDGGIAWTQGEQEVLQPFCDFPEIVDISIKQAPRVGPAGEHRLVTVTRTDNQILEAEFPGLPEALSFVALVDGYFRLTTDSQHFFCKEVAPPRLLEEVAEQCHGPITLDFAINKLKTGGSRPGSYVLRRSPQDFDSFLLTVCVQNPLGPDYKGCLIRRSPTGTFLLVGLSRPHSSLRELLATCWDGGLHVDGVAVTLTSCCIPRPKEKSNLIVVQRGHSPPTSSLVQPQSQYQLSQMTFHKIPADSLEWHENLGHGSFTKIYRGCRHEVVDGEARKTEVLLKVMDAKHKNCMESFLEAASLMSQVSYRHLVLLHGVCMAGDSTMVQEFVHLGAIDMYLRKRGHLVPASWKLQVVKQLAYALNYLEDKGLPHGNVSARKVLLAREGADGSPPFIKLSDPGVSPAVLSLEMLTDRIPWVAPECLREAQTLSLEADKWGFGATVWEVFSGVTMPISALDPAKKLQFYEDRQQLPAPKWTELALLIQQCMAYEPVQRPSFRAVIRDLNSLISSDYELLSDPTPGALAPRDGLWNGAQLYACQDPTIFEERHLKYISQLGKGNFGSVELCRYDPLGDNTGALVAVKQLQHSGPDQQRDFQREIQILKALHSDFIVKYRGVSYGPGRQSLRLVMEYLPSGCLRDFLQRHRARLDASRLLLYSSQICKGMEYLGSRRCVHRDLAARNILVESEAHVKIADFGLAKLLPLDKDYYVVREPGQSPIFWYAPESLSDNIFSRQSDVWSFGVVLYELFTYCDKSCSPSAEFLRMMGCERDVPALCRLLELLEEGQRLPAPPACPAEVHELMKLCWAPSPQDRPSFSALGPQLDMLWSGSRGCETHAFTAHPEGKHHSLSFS

This assay addresses JAK3 kinase (Homo sapiens, UniProt P52333). As to the kind of experiment: Mobility shift assay, in vitro JAK3 kinase inhibitory activity. It is filed as biochemical. Conditions: read-out: JAK3 IC50, Example 136.

With `C=CC(=O)N1Cc2c(-c3ccnc4[nH]ccc34)cnn2CC12CC2`, the IC50 stood at 1.5 nM.
